The entries are a selection whose mix differs from that of the whole data set. The source made the active and inactive calls.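 How the source made its calls: active means inhibition above the mean of all tested compounds plus 3 SD (cut at about 40% in these data); inactive means the rest.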

The nature of the test: lowered NF-kB luciferase signal in HEK293 cells – cell-based, HEK-293 luciferase reporter, PMA/ionomycin, luminescence, antigen receptor NF-kB inhibitor project, primary screen (AID 465).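 Further: 0% = stimulated DMSO wells and 100% = 10 µM reference inhibitor 5653914.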 Particulars: HEK-293 NF-kB luciferase reporter, at 3 µM, hits give high values. For orientation: A reporter such as luciferase makes a cellular process visible.
In the case of `COc1ccccc1OP(C)(=O)Nc1ccc(C)c(C)c1` (configuration not stated), the inhibition (usually the drop in the measured response relative to a control, in per cent) was inactive: 14.2%.

In the case of `Cc1nc2ccc3ccccc3c2o1.O=[N+]([O-])c1cc([N+](=O)[O-])c(O)c([N+](=O)[O-])c1`, the inhibition was inactive: 3.5%.

With `CP(=O)(Nc1ccccn1)Oc1ccccc1` (configuration not stated), the inhibition is inactive: 7.9%.

With `CP(=O)(Oc1ccccc1)N1CCOC1=O` (configuration not stated), the inhibition was inactive: -1.7%.

In the case of `COc1ccccc1OP(C)(=O)Nc1c(C)n(C)n(-c2ccccc2)c1=O` (configuration not stated), the inhibition is inactive: 16.6%.

As to `CN(C)CCOC(=O)C(O)(c1ccccc1)C1CCCCC1` (configuration not stated), the inhibition was inactive: 18.2%.

With `CCOP(C)(=S)SCC(=O)NC(C)(CC)C(=O)O` (configuration not stated), the inhibition is inactive: 12.5%.

In the case of `CP(=O)(Nc1ccc2c(c1)OCCO2)Oc1ccccc1` (configuration not stated), the inhibition is inactive: 5.7%.

As for `Cc1ccccc1NP(C)(=O)Nc1ccccc1C`, the inhibition was inactive: -0.3%.

Turning to `CP(=O)(Nc1ccccc1F)Oc1ccccc1` (configuration not stated), the inhibition was inactive: 1.7%.

As to `Cc1ccc(C)c(NP(C)(=O)Oc2ccccc2)c1` (configuration not stated), the inhibition is inactive: 6.9%.

With `Cc1nc2ccc3ccccc3c2s1.O=[N+]([O-])c1cc([N+](=O)[O-])c(O)c([N+](=O)[O-])c1`, the inhibition was inactive: 24.6%.

On to `CP(=S)(Nn1cnnc1)Oc1ccccc1` (configuration not stated), for which the inhibition was inactive: 12.1%.

Turning to `CP(=O)(NC(=O)Nc1ccccc1)Oc1ccccc1` (configuration not stated), the inhibition was inactive: 6.3%.

`CCOP(C)(=S)SCC(=O)NC(C)C(=O)O` (configuration not stated): the inhibition is inactive: 16.7%.

With `COc1ccccc1OP(C)(=O)Nc1ccc(C)cc1` (configuration not stated), the inhibition is inactive: -1.2%.

Regarding `Cc1ccc(NP(C)(=O)Oc2ccccc2)c(C)c1` (configuration not stated), the inhibition is inactive: 12.8%.

(Values after PubChem BioAssay AID465 (The Scripps Research Institute Molecular Screening Center, 2006).)
